Test results reported in patent publication US6974804B2, “Esters” (Unilever Home & Personal Care USA, division of Conopco, Inc., priority 2000, dated 2005).

experiment: Light transmission at 580 nm (% T); format: physicochemical; settings: gel in 60:40 w/w Silkflo 364:DC245
Protocol: The translucency of a composition may be measured by placing a sample of standardised thickness in the light path of a spectrophotometer and measuring transmittance, as a percentage of light transmitted in the absence of the gel.
This test was carried out using a dual-beam spectrophotometer. The sample of composition was poured hot into a 4.5 ml cuvette made of poly(methyl-methacrylate) (PMMA) and allowed to cool to an ambient temperature of 20-25° C. Such a cuvette gives a 1 cm thickness of composition. […] A transmittence measured at any temperature in the range from 20-25° C. is usually adequately accurate, but measurement is made at 22° C. if more precision is required.

| Substance | % T |
| --- | --- |
| cellobiose heptanonanoate monocyclohexanoate [Ex 1.10] | 48% |
| cellobiose heptanonanoate monocyclohexanoate [Ex 1.12] | 38% |
| cellobiose heptanonanoate monocyclohexanoate [Ex 1.13] | 41% |
| cellobiose heptanonanoate monocyclohexanoate [Ex 1.14] | 22% |
| cellobiose heptanonanoate monocyclohexanoate [Ex 3.1] | 26% |
| cellobiose heptanonanoate monocyclohexanoate [Ex 3.2] | 34% |
